Measurements reported in PubChem BioAssay AID588398 (Broad Institute, 2011).
The entries are a selection whose mix differs from that of the whole data set. Measured potencies and affinities stand elsewhere. Records with an inconclusive call do not appear. Calls of active or inactive are those of the source.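 How the source made its calls: active means pathway reporter half-maximal dose under half the control reporter's, or control reporter unaffected while pathway reporter is inhibited; inconclusive means either signal flat at 30 to 70% inhibition or poorly fitted; inactive means the rest.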

Experiment: TES1-eGFP NF-kB reporter inhibition versus Tet-On dsRED, dose response, selectivity assay for LMP1 NF-kB inhibitor project, imaging, HEK293T, dual-color eGFP/dsRED, cherry-picks (AID 588398);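 further: 0% = median of neutral control wells and -100% = median of MG132 positive control wells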
Conditions: HEK293T Tet-On dsRED counter-screen channel, 48 h; at 19.5 µM (top of the series)

Row | Compound | activity change, negative = inhibition
1 | COc1ccc(/C=C/c2nc3ccccc3n2C)cc1 | inactive: 3.42%
2 | C[C@@H](OC(=O)c1[nH]cnc1C(=O)N1CCc2ccccc2C1)c1ccccc1 | inactive: 29.4%
3 | COc1ccc(Cn2c(SCc3cc(C)ccc3C)nc3cc(OC)c(OC)cc3c2=N)cc1 | inactive: -12.6%
4 | COc1cc(Cl)cc(C(c2c(C(=O)O)[nH]c3ccccc23)c2c(C(=O)O)[nH]c3ccccc23)c1O | inactive: 14.5%
5 | COC(=O)[C@H](C)[C@H]1C[C@]1(C)[C@H](NC(=O)OCc1ccccc1)c1ccccc1 | inactive: -0.636%
6 | O=C(COc1ccc2ccccc2c1)NCCNC(=O)COc1ccc2ccccc2c1 | inactive: 11.9%
7 | COc1ccc2oc(C(=O)NCCc3ccccc3)c(C)c2c1 | inactive: 6.72%
8 | CCN1CCN(Cc2ccc(NC(=O)c3ccc(C)c(NC(=O)c4c[nH]c5cc(C(F)(F)F)ccc5c4=O)c3)cc2C(F)(F)F)CC1 | inactive: 11.4%
9 | Cc1nc(N)nc(N)c1/C=C/C(C)(C)c1ccc(Cl)cc1 | inactive: 69.2%
10 | O=C(O)c1ccccc1Nc1cccc(OCc2ccc3ccccc3n2)c1 | inactive: 21.5%
